# ChEMBL document CHEMBL2177054, “Rational design of conformationally constrained cyclopentapeptide antagonists for C-x-C chemokine receptor 4 (CXCR4)” (J Med Chem, 2012)
# Protein sequences, listed by entry. Tags and fused reporters are not part of them.
# UniProt P61073, whole entry: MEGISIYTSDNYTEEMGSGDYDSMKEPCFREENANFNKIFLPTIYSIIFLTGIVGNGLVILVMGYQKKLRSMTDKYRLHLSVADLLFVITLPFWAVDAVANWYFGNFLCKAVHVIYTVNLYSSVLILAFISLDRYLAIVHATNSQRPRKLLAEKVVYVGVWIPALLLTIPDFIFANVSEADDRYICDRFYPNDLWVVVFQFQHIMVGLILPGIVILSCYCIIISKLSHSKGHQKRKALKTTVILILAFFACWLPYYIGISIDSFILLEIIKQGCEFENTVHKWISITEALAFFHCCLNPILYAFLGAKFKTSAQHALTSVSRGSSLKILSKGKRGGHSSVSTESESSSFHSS
# Target: C-X-C chemokine receptor type 4 (Homo sapiens, UniProt P61073)
# Experiment: Antagonist activity against human CXCR4 expressed in COS7 cells assessed as inhibition of CXCL12-induced myo-[3H]inositol production by scintillation counting
# Assay type: functional, cell-based, COS-7
row,SMILES,EC50 [nM]
1,N=C(N)NCCC[C@@H]1NC(=O)[C@@H](CCCNC(=N)N)NC(=O)[C@@H](Cc2ccc(O)cc2)NC(=O)CNC(=O)[C@H](Cc2ccc3ccccc3c2)NC1=O,780
2,N=C(N)NCCC[C@@H]1NC(=O)[C@H](CCCNC(=N)N)NC(=O)[C@@H](Cc2ccc(O)cc2)NC(=O)CNC(=O)[C@H](Cc2ccc3ccccc3c2)NC1=O,470
